High-throughput results: PubChem BioAssay, several laboratories
MC4R antag cAMP = MC4R antagonists of cAMP signaling, primary screen, cell-based, TR-FRET, antagonist arm of biased-ligand search | actives 0.48% (n = 360,000) | MC4R-expressing cells, MTII-stimulated cAMP, LANCE TR-FRET | Melanocortin receptor 4 (Homo sapiens), P32245 | inhibition, % at 6.5 µM;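 active = inhibition above its plate's cutoff, the mean of tested wells on that plate plus 3 SD, cut at about 29% in these data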;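 also: 0% = Melanotan II alone and 100% = Melanotan II plus saturating MCL0020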
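Material: human MC4R-expressing U2OS cells. Probe or stimulus: Melanotan II challenge. Dosing: 6.5 µM single dose. Times: 30-min compound, 1-h challenge, 1-h detection, room temperature. Technique: TR-FRET with Eu-cAMP and labeled anti-cAMP, 671 nm. Replication: singlicate.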
NRP1-CendR mod = modulators of CendR peptide binding to NRP-1, primary screen, biochemical, fluorescence polarization, uHTS. inhibition, % at 25 µM. actives 0.85% (n = 360,000). FAM-RPARPAR peptide binding to NRP-1. Neuropilin-1 (Homo sapiens), O14786;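 active = inhibition or corrected inhibition above about 18%, plus a signal ratio from 0.5 to 1.5, limit read from the data, passing the limit was not always enough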
ARFGAP1 inh = inhibitors of rat ARFGAP1 GAP activity, primary screen, biochemical, fluorescence polarization, GDP tracer; ADP-ribosylation factor GTPase-activating protein 1 (Rattus norvegicus), Q62848; Arfgap1-stimulated ARF1 GTP hydrolysis, GDP FP detection; inhibition, % at 16.5 µM; actives 0.26% (n = 360,000);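 active = inhibition above a per-plate limit, mean inhibition of low control wells plus 3 SD, cut at about 25% in these data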;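 also: 0% = DMSO wells with enzyme and 100% = wells lacking Arfgap1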
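Material: truncated rat Arfgap1 GAP domain; Incubation: compound-enzyme preincubation 20 min, reaction 120 min, detection 60 min, 25 °C; Read-out: percent inhibition of Arfgap1-stimulated GTP hydrolysis; Technique: FP, GDP Alexa 633 tracer displaced from anti-GDP antibody, 620/688 nm; Controls: No-Arfgap1 wells (100%) versus DMSO full-reaction wells (0%); Replication: single well per compound.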
UUG fidelity = modulators of start codon recognition fidelity in yeast; S. cerevisiae UUG-firefly luciferase reporter, luminescence/redox ratio; activity score, % at 18.7 µM; hit rate 0.13% among 350,000; AID 602363;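 active = replicate mean at a twofold rise or more, about +100% in these data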;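 note: firefly luciferase made from a UUG start codon reports start codon fidelity; reporter light over untreated wells divided by growth signal over untreated wells; some hits fall short of that in this replicate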
MC4R ag barr = MC4R agonists recruiting beta-arrestin, primary screen, cell-based, luminescence, agonist arm of biased-ligand search; U2OS MC4R beta-arrestin complementation; percent of melanotan II response, DMSO zero; activation, % at 8.9 µM; actives 0.98% (n = 360,000);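 active = activation above a per-plate cutoff, the mean activation of sample wells on that plate plus 3 SD, cut at about 8% in these data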
ASAP1 GAP inh = inhibitors of human ASAP1 ArfGAP activity, primary screen, biochemical, fluorescence polarization; Arf-GAP with SH3 domain, ANK repeat and PH domain-containing protein 1 (Homo sapiens), …; ASAP1-stimulated ARF1 GTP hydrolysis, GDP FP detection; inhibition, % at 16.5 µM; actives 0.19% (n = 360,000); AID 624377, 2012; in the data active = inhibition above about 25%;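 also: 0% = vehicle with enzyme and substrate and 100% = no enzyme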
* marks the source's active call; other numbers are inactive results; . = not tested or not shown. The list is not random: actives were taken first. Their share in the collection is about 2.3%.

By UniProt entry, the sequences of proteins in these tests, tags left out.
Melanocortin receptor 4 (Homo sapiens), P32245, UniProt P32245, whole entry, looked up: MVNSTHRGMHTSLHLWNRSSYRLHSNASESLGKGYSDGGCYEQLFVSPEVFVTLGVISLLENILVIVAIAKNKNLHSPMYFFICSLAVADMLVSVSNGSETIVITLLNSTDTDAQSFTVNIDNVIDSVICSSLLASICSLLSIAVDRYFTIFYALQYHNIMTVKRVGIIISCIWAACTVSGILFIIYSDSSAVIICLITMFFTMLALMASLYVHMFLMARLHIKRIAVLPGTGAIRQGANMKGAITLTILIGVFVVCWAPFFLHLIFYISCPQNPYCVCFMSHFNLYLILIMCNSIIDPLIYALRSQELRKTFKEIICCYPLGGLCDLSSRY
Neuropilin-1 (Homo sapiens), O14786, UniProt O14786, whole entry, looked up: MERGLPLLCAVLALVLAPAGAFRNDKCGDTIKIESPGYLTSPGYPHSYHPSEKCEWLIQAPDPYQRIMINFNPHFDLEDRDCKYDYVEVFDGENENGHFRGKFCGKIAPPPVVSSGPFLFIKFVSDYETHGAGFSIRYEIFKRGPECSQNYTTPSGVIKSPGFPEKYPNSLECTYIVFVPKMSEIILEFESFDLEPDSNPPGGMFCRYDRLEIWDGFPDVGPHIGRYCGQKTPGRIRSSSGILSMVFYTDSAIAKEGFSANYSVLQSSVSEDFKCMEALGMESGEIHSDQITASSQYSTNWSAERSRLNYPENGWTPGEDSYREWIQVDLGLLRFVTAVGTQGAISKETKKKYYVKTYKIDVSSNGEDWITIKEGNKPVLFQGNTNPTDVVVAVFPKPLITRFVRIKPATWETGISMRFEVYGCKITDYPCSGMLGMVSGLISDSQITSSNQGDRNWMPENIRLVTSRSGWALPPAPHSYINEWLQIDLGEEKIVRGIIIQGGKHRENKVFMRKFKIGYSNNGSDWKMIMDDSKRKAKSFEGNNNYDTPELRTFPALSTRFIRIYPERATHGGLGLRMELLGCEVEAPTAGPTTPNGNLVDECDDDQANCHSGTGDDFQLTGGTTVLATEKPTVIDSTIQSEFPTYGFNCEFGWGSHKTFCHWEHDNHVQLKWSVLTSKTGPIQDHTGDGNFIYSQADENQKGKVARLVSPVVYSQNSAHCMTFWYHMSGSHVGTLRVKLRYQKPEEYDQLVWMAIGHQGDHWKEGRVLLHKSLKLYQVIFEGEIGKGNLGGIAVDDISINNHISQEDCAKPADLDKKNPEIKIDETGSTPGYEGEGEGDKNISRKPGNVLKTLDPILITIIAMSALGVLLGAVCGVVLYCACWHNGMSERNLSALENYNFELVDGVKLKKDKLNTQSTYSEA
ADP-ribosylation factor GTPase-activating protein 1 (Rattus norvegicus), Q62848, UniProt Q62848, whole entry, looked up: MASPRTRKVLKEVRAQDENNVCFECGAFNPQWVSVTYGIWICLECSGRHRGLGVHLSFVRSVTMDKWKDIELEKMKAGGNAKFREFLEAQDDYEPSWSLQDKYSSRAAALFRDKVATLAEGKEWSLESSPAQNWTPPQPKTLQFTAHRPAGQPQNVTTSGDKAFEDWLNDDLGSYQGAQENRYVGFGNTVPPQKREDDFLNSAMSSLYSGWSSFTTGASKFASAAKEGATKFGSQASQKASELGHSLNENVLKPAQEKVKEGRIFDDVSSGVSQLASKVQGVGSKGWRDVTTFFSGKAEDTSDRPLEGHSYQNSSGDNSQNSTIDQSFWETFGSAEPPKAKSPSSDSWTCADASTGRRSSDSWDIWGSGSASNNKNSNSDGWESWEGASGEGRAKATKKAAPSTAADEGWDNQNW

Values run as follows: MC4R antag cAMP | NRP1-CendR mod | ARFGAP1 inh | UUG fidelity | MC4R ag barr | ASAP1 GAP inh
1	COCCNC(=O)C[C@H]1CC[C@@H]2[C@H](COC[C@H](O)CN2S(=O)(=O)c2ccccc2C)O1
 : . | . | . | 24 | . | .
2	CC(C)(C)NC(=O)NC(=O)COC(=O)c1ccc(OC(F)F)cc1
 : -3 | 7 | 0 | 9 | 2 | 3
3	CC(C)(C)NC(=O)NC(=O)COC(=O)c1ccc(OC(F)(F)F)cc1
 : 1 | -4 | 19 | . | 8.4* | -1
4	CC(C)C(C)NC(=O)CSc1nnc(-c2c[nH]c3ccccc23)o1 (centres undefined)
 : -3 | -6 | -11 | . | 1 | 6
5	Cc1ccc(C(=O)CSc2nnc(-c3c[nH]c4ccccc34)o2)cc1
 : 2 | -6 | -3 | -3 | 8.2* | 11
6	N#Cc1ccc(-c2ccc(F)cc2)nc1Oc1ccc(F)cc1
 : 11 | 12 | 6 | -8 | 9.3* | -2
7	N#Cc1ccc(-c2ccc(F)cc2)nc1Oc1ccccc1
 : -2 | -20 | 6 | -9 | 7 | 8
8	Cc1ccc(Oc2nc(-c3ccccc3)ncc2S(C)(=O)=O)cc1
 : -4 | -10 | -2 | -14 | 8.4* | 10
9	COc1ccccc1C=NNc1ccc([N+](=O)[O-])cn1
 : 3 | 24* | 3 | -8 | -3 | 5
10	COc1cccc(C=NNc2ccc([N+](=O)[O-])cn2)c1OC
 : 8 | -24 | 8 | -14 | 3 | 10
11	O=C(C[C@H]1C=C[C@@H](NC(=O)C2CC2)[C@@H](CO)O1)NCc1ccncc1
 : . | . | . | -3 | . | .
12	Cc1ccc(O)c(-c2cc(-c3ccccc3[N+](=O)[O-])[nH]n2)c1
 : 2 | 20 | 13 | . | 8.9* | 17
13	C[C@@H]1CCCCO[C@@H](CN(C)C(=O)Nc2ccc3c(c2)OCO3)[C@H](C)CN([C@H](C)CO)C(=O)c2cc(NS(C)(=O)=O)ccc2O1
 : . | . | . | 3 | . | .
14	CCC(=O)N1[C@@H](CO)[C@@H]2c3ccccc3N(C(=O)Nc3cccc(Cl)c3)C[C@@H]21
 : . | . | . | -12 | . | .
15	COc1ccc(NC(=O)N(C)C[C@@H]2Oc3ccc(NC(=O)C4CCCCC4)cc3CC(=O)N([C@@H](C)CO)C[C@@H]2C)cc1
 : . | . | . | -7 | . | .
16	C[C@H](CO)N1C[C@H](C)[C@@H](CN(C)CC2CCCCC2)OCCCC[C@H](C)Oc2ccc(NC(=O)c3ccccc3)cc2C1=O
 : . | . | . | 19 | . | .
17	Cc1sc2cc3c(c(C(=O)c4ccccc4)[n+]2c1C)-c1cccc2cccc-3c12
 : . | . | 0 | . | . | -2
18	O=C(c1ccccc1)c1c2c(cc3sc4ccccc4[n+]13)-c1cccc3cccc-2c13
 : -25 | 6 | 20 | 21 | 26* | 5
19	Cc1ccc(C(=O)O)cc1NC(=O)Nc1cccc2ccccc12
 : -1 | 22* | -2 | -10 | -2 | 15
20	NS(=O)(=O)c1ccc(CCNC(=O)CNC(=O)c2ccc(Br)o2)cc1
 : 4 | 19* | . | -5 | -1 | .

The list continues:
Values run as follows: MC4R antag cAMP | NRP1-CendR mod | ARFGAP1 inh | UUG fidelity | MC4R ag barr | ASAP1 GAP inh
21	NS(=O)(=O)c1ccc(CCNC(=O)CNC(=O)COc2ccccc2)cc1
 : -1 | -4 | 6 | -6 | 2 | -5
22	Cc1ccc(S(=O)(=O)Nc2cccc3c2O[C@@H](CN(C)C(=O)Nc2c(C)noc2C)[C@H](C)CN([C@@H](C)CO)C3=O)cc1
 : . | . | . | -2 | . | .
23	Cc1ccc(OCCC(=O)OCC(=O)NCCc2ccccc2)cc1
 : 0 | 27* | 11 | . | -4 | 4
24	Cc1ccc(OCCC(=O)OCC(=O)NCc2ccccc2)cc1
 : 3 | -4 | -11 | . | 2 | 0
25	CC(=O)N(C)C[C@H]1Oc2ncc(C#C[C@H](C)O)cc2C(=O)N([C@H](C)CO)C[C@@H]1C
 : . | . | . | -13 | . | .
26	CCOc1cc(C(=O)CSc2nnc(CNc3ccc(Cl)cc3)o2)ccc1NC(=O)CC
 : 3 | -10 | 9 | -9 | 40* | 4

Exported with values ahead of the structure: entries from further up
No. | MC4R antag cAMP | NRP1-CendR mod | ARFGAP1 inh | UUG fidelity | MC4R ag barr | ASAP1 GAP inh | smiles
22 | . | . | . | -2 | . | . | Cc1ccc(S(=O)(=O)Nc2cccc3c2O[C@@H](CN(C)C(=O)Nc2c(C)noc2C)[C@H](C)CN([C@@H](C)CO)C3=O)cc1
21 | -1 | -4 | 6 | -6 | 2 | -5 | NS(=O)(=O)c1ccc(CCNC(=O)CNC(=O)COc2ccccc2)cc1
26 | 3 | -10 | 9 | -9 | 40* | 4 | CCOc1cc(C(=O)CSc2nnc(CNc3ccc(Cl)cc3)o2)ccc1NC(=O)CC
